Data as given in patent US20080287486A1, “Prokinetic agent for bowel preparation” (Theravance, Inc., priority 2007, published 2008).

Tested on: healthy subjects
Assay: Measurement of onset of bowel movement in healthy subjects (stool diary card, rising single doses)
Conditions: human, in vivo
Procedure: Gelatin capsules were filled with up to 10 milligrams (free base equivalent) of 1-isopropyl-2-oxo-1,2-dihydroquinoline-3-carboxylic acid {(1S,3R,5R)-8-[(R)-2-hydroxy-3-(methanesulfonyl-methyl-amino)propyl]-8-aza-bicyclo[3.2.1]oct-3-yl}amide hydrochloride, the present prokinetic agent, prepared according to the method of Examples 1 and 2.
Subjects were dosed weekly with rising doses of the prokinetic agent (0.1 to 70 mg) or placebo in two alternating panels of 10 subjects and a third panel of 10 subjects. Subjects were monitored for safety and evidence of prokinetic effects using a stool diary card. Time and consistency (Bristol score) of each bowel movement were recorded.

## CC(C)n1c(=O)c(C(=O)N[C@H]2C[C@H]3CC[C@@H](C2)N3C[C@@H](O)CN(C)S(C)(=O)=O)cc2ccccc21 [compound 1, 1-isopropyl-2-oxo-1,2-dihydroquinoline-3-carboxylic acid {(1S,3R,5R)-8-[(R)-2-hydroxy-3-(methanesulfonyl-methyl-amino)propyl]-8-azabicyclo[3.2.1]oct-3-yl}amide]
  prokinetic effect: rapid and effective prokinetic effect
